Earlier results in US5747524A, “Cannabinoid receptor antagonists” (Eli Lilly and Company, priority 1996, dated 1998).

Test system: CB-1 receptor
Conditions: in vivo and in vitro models; Rinaldi-Carmons et al. 1994; cited from earlier work

Cc1c(C(=O)NN2CCCCC2)nn(-c2ccc(Cl)cc2Cl)c1-c1ccc(Cl)cc1 [SR141716A]
Block of actions of cannabinoids and anandamide (in words): block the actions of both cannabinoids and anandamide in in vivo and in vitro models
